By UniProt entry, the sequences of proteins in these tests, tags left out.
UniProt Q9UKE5, whole entry: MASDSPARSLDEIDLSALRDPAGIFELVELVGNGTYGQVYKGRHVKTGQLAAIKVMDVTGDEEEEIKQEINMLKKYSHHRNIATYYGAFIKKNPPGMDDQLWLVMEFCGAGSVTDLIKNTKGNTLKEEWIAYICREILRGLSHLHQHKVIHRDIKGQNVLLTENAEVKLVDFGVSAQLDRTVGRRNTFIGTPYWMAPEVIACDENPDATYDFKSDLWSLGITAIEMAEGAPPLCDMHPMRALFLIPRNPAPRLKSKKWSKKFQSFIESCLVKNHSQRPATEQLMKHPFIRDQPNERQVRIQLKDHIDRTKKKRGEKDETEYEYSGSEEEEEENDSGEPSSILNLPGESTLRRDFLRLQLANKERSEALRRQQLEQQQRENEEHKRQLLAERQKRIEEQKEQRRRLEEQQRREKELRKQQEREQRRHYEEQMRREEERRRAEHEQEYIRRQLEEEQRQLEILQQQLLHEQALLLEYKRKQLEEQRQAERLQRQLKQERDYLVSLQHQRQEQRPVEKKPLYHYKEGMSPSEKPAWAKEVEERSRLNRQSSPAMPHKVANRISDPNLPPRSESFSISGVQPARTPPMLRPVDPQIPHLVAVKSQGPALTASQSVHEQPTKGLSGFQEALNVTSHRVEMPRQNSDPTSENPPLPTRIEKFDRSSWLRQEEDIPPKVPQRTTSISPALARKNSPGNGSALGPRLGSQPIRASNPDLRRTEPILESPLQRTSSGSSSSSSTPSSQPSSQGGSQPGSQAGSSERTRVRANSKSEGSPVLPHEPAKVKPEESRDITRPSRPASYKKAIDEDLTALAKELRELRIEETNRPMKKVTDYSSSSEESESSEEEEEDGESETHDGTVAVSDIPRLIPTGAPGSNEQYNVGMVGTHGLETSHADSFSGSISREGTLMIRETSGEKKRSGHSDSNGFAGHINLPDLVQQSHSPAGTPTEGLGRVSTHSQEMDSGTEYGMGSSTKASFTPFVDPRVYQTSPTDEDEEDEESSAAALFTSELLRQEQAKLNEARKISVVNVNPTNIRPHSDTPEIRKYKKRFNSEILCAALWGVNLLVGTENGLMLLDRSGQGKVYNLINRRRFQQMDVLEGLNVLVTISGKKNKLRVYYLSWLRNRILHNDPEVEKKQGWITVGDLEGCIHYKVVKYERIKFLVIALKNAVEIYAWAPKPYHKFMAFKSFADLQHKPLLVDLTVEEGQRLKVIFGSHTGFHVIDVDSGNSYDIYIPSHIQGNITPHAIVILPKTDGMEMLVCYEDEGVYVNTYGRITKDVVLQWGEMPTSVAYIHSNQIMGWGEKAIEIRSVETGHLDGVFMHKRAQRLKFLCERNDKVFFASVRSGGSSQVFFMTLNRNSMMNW

According to patent EP4837905A1, “BIPHENYL DERIVATIVE, PHARMACEUTICAL COMPOSITION AND USE THEREOF” (dated 2026):

Experiments:
[1] = molecular target: TNIK (Homo sapiens, UniProt Q9UKE5); experiment: IC50 screening against target kinase (ADP-Glo); details: room temperature, 60 minutes reaction, values only in Fig. 15
From the text: To further evaluate the binding ability of biphenyl derivatives to target kinases, IC50 was used to detect the inhibitory effect of biphenyl derivatives on target kinases. In this experiment, IC50 represents the concentration of drug or inhibitor required to inhibit the activity of a specified kinase by half. In pharmacology, it is used to characterize the antagonistic ability of antagonists in in vitro experiments.
First, prepare 2 × ATP and substrate mixture solution and 2 × TNIK and MgCl2 mixture solution using test buffer, respectively. Then, transfer 40 nL of small molecules and 2 µL of 2 × TNIK and MgCl2 mixture solution to a 384-well plate. After mixing at room temperature, incubate for 10 minutes. Next, transfer 2 µL of 2 × ATP and substrate mixture solution to the 384-well plate, and react at room temperature for 60 minutes. Add 4 µL of ADP-Glo reagent (supplier: Promega; product number: V9103) to the reaction system, and incubate at room temperature for 40 minutes. Finally, add 8 µL of kinase detection reagent (supplier: Promega; product number: V9103) to the reaction system, incubate at room temperature for 40 minutes, and read the fluorescence signal using a microplate reader. The concentration gradients of biphenyl derivatives I-1, I-4, I-12 are set at 50000 µM, 12500 µM, 3125 µM, 781.3 µM, 195.3 µM, 48.83 µM, 12.21 µM, 3.05 µM, 0.76 µM, and 0.19 µM.
The calculation formula for inhibition rate (%) is: inhibition rate (%) = 100% - (small molecule reading - positive control reading) / (negative control reading - positive control reading) * 100%. By substituting the inhibition rate (%) and the Log value of inhibitor concentration into the nonlinear regression equation, the IC50 of the small molecule can be calculated as: Y = Bottom + (Top - Bottom) / (1 + 10^((LogIC50 - X) * hillslope)), where X is the Log value of inhibitor concentration and Y is the inhibition rate (%).

[2] = test system: 330 kinases; experiment: In vitro kinase profile screening (HTRF or ADP-Glo); details: I-1 10 mM, 25 nL in DMSO; kinase 15-50 nM; ATP 10-60 µM; 25 °C; values only in Figs. 13-14
Protocol: Based on the results from Example 1, in vitro kinase profile screening was conducted on the biphenyl derivatives in this application to further confirm the actual functional interactions between these derivatives and target kinases. Through the screening of inhibitory effects on activity among 330 kinases, during the kinase activity assay, the kinase (15-50 nM, 2.5 µL, prepared in assay buffer) was first mixed with biphenyl derivative I-1 (10 mM, 25 nL, prepared in DMSO) and incubated at 25 °C for 10 minutes. Subsequently, a mixture of kinase peptide substrate (0.2 mg/ml; supplier: GenScript) and ATP (10-60 µM; supplier: Promega; product number: V915B) (total 2.5 µL, prepared in assay buffer) was added to the mixed system, and the reaction was allowed to proceed at 25 °C for 60-120 minutes. Finally, the reaction products were quantitatively detected using the HTRF or ADP-Glo method. The composition of the test buffer is as follows: 50 mM HEPES (supplier: Thermo Fisher; product number: 15630080), 10 mM MgCl2 (supplier: Sigma; product number: M1028), 0.01% Brij35 (supplier: Millipore; product number: 1018940100), 1 mM EGTA (supplier: Sigma; product number: E3889), and 2 mM DTT (supplier: MCE; product number: HY-15917). During the kinase activity assay, the consumption of each substrate was less than 10%. Each kinase activity assay was set up with two technical replicates.

Row | SMILES | IC50 against the target kinase [1] | inhibitory effects on activity among 330 kinases [2]
1 | Cn1ncc2c(-c3cccc([C@H]4CNC(=O)C4)c3)cccc21 | significant antagonistic activity against the target kinase | significant inhibitory effects on multiple target kinases
2 | Cn1ncc2c(-c3cccc(-c4cc(O)ccn4)c3)cccc21 | significant antagonistic activity against the target kinase | –
3 | Cn1ncc2c(-c3cccc(-c4cccc(N)c4)c3)cccc21 | significant antagonistic activity against the target kinase | –
